Key:
[1] = tested on: patients with major depressive disorder; assay: Phase 2a cardiodynamic ECG evaluation (concentration-QTc and by-time point analysis); type: in vivo, human; details: linear concentration-QTc analysis
[2] = 5 mg dose, immediate release, oral; cited from earlier work
μ opioid receptors = μ opioid receptors (Rattus norvegicus, UniProt P33535); details: cited from earlier work

Sequences of proteins named here, by UniProt entry; tags and fusion partners are left off.
UniProt P33535, whole entry: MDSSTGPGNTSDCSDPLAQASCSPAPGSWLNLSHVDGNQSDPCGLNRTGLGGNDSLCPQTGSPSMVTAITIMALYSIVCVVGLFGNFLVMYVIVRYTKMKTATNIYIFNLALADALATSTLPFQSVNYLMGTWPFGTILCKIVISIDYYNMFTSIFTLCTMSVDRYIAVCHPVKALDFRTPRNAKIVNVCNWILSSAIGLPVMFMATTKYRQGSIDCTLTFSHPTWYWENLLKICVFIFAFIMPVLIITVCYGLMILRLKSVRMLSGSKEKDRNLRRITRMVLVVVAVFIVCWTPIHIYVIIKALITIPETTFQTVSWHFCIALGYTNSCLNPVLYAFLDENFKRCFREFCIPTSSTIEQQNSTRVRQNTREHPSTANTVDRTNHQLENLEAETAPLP

CCC(=O)C(C[C@H](C)N(C)C)(c1ccccc1)c1ccccc1 [esmethadone]
Plasma concentration at which 90% UCI of ΔΔQTcF reaches 10 ms (10 ms Threshold) [1]: 0.3 µg/mL
Cmax [2]: 0.0533 µg/mL
Lower affinity for μ opioid receptors with respect to levomethadone (μ opioid receptors): 20 fold
